# Only a part is listed here, and it is no random draw. Results filed as inconclusive are left out. Calls of active or inactive are those of the source. The call rests on the fitted dose curve; in most records, active means well fitted inhibition curve with a large enough effect; inconclusive means small, poorly fitted or top-dose-only effect; inactive means flat fitted curve, though single readings scatter.
# The chains behind the UniProt entries cited, without tags or fusion partners. Where a name states a change or a piece, a line headed by the entry shows the natural chain unless it says otherwise.
# UniProt P02791: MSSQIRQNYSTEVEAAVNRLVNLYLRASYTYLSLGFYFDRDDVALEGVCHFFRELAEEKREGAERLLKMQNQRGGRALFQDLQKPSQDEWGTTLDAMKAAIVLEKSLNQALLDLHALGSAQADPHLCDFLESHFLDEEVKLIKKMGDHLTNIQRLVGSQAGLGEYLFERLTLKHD
# Target: Ferritin light chain (Equus caballus) (UniProt P02791)
# Experiment: Confirmation Assay for Identification of Novel General Anesthetics; further: nearly all actives have a fitted effect of over 40% in size
# Conditions: apoferritin 1-aminoanthracene fluorescence displacement
# Description: Anesthetic development has remained a largely empirical process. There are growing concerns about the cognitive effects of known general anesthetics and acceleration of the onset of neurodegenerative disease. The compounds' toxicity and multiple specific binding targets in the mammalian brain [4] has made them less attractive as drug leads. In this assay, a GABAergic mimetic model system, apoferritin and a profluorescent 1-aminoanthracene ligand (1-AMA), was used to construct a competitive binding assay for identification of novel general anesthetics. The assay was validated for 1-AMA using other known anesthetics, such as isoflurane (CID:3763) and propofol (CID: 4943), [6]. […]
# in PBS) in columns 3, 4 as negative control and 1-AMA/apoferritin mixture (10 uM horse-spleen apoferritin in 50% saturated 1-aminoanthracene in PBS) in columns 1, 2, 5-48) was dispensed into 1536-well Greiner black assay plates. […] The plates were incubated for 10 min at room temperature, and then read on an EnVision HTS multilabel reader (Perkin-Elmer, Waltham, MA) (end point read, 3 min/plate) using Fura2 BFP excitation filter (380 nm, bandwidth 10 nm) and fluorescein emission filter (535 nm, bandwidth 25 nm) set. […] Activity was computed as the normalized fluorescence response relative to free 1-AMA and 1-AMA/apoferritin complex values. […]
# Potency means the concentration at half of the fitted maximal effect.
compound,measurement,value
CCOC(=O)NC(Sc1ccccc1)C(Cl)(Cl)Cl (stereo unspecified),Potency,active: 15.8 µM
